Target: T1, α-amylase (Sus scrofa, UniProt P00690)
T1 sequence (P00690 16-511): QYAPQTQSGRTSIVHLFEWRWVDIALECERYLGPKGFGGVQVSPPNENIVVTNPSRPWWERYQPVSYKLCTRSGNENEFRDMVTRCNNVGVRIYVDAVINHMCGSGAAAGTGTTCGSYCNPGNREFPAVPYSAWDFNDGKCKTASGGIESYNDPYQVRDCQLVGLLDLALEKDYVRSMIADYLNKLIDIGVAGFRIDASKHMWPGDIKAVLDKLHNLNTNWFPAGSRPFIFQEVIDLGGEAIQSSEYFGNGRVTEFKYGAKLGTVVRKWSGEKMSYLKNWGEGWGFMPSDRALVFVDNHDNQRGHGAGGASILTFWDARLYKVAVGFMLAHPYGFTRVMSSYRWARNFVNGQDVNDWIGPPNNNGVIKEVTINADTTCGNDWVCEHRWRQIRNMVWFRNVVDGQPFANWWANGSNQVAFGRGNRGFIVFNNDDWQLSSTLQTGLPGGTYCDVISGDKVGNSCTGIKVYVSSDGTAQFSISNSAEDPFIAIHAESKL
Assay: α-Amylase inhibitory test (starch/DNS)
Type: biochemical
Conditions: at the highest concentrations used

In the case of `C[C@H]1O[C@H](O[C@H]2[C@H](O)[C@@H](O)[C@@H](O[C@H]3[C@H](O)[C@@H](O)C(O)O[C@@H]3CO)O[C@@H]2CO)[C@H](O)[C@@H](O)[C@@H]1N[C@H]1C=C(CO)[C@@H](O)[C@H](O)[C@H]1O` (stereo partly shown) [Acarbose, acarbose], the “Maximum inhibition of α-amylase” value is reported as 84%.
